Values of other authors as cited in article PMC3682882 (BMC Pharmacology & Toxicology, 2013).

Conditions: cited from earlier work

SMILES: CN(C)C(=N)N=C(N)N [Metformin, reference compound]
- metabolism and metabolic interactions: neither metabolized nor inhibits the metabolism of other drugs
